Only a part of the results on these compounds is given; other tests are left out.
System: human hepatic cell line (HepG2 ATCC HB-8065)
Test: Human cell viability assay (CellTiter-Glo)
Conditions: for toxicity against HepG2 human hepatic cell line (in words): HepG2, summary statement in text; for IC50 (μg/mL) HepG2: HepG2 cell viability, 24 h incubation with compound, CellTiter-Glo

## COc1ccc2ccc(=O)n(CCN3CC[C@@H]4[C@H](C3)OC(=O)N4c3ccc4c(n3)NC(=O)CO4)c2n1 (relative stereo)
  toxicity against HepG2 human hepatic cell line (in words): no detectable toxicity
  IC50 (μg/mL) HepG2: A (an IC50 of over 100 is assigned the letter A)

## COc1ncc2ccc(=O)n(CCN3CC[C@@H]4[C@H](C3)OC(=O)N4c3ccc4c(n3)NC(=O)CO4)c2n1 (relative stereo)
  toxicity against HepG2 human hepatic cell line (in words): no detectable toxicity
  IC50 (μg/mL) HepG2: A (an IC50 of over 100 is assigned the letter A)

## N#Cc1ccc2ccc(=O)n(CCN3CC[C@@H]4[C@H](C3)OC(=O)N4c3ccc4c(n3)NC(=O)CO4)c2c1 (relative stereo)
  toxicity against HepG2 human hepatic cell line (in words): acceptable level of hepatic toxicity
  IC50 (μg/mL) HepG2: B (an IC50 of from 10 to 100 is assigned the letter B)
